Test results taken from US4292249A, “25-Hydroxy-24-oxocholestane derivatives and preparation thereof” (priority 1979, dated 1981).

Test system: calcium absorption at the intestinal tube
Test: Effect to promote calcium absorption from the intestinal tract (everted gut sac method)
Assay type: in vivo, Wistar male rats
Settings: vitamin D-deficient rats, 250 ng/head intravenously, measured 4, 8, 24 and 48 hour later
Protocol: They were killed 4 hour, 8 hour, 24 hour and 48 hour later, and calcium absorption at the intestinal tube was measured by the everted gut sac method [see Martin, D. L. and Deluca, H. F., Amer, J. Physiol.

## C=C1/C(=C\C=C2/CCC[C@]3(C)[C@@H]([C@H](C)CCCC(C)(C)O)CC[C@@H]23)C[C@@H](O)C[C@@H]1O [1α,25-dihydroxy cholecalciferol, reference compound]
  time of maximum effect on intestinal calcium absorption after administration: about 8 hours
